Assay results as given in ChEMBL document CHEMBL4414617, “Identification of 2-Imidazopyridine and 2-Aminopyridone Purinones as Potent Pan-Janus Kinase (JAK) Inhibitors for the Inhaled Treatment of Respiratory Diseases” (J Med Chem, 2019).

Chains of the proteins cited; added tags and fusions are not shown. Lines headed by an entry give the natural chain unless they say otherwise; changes in a name come on top.
UniProt P29597: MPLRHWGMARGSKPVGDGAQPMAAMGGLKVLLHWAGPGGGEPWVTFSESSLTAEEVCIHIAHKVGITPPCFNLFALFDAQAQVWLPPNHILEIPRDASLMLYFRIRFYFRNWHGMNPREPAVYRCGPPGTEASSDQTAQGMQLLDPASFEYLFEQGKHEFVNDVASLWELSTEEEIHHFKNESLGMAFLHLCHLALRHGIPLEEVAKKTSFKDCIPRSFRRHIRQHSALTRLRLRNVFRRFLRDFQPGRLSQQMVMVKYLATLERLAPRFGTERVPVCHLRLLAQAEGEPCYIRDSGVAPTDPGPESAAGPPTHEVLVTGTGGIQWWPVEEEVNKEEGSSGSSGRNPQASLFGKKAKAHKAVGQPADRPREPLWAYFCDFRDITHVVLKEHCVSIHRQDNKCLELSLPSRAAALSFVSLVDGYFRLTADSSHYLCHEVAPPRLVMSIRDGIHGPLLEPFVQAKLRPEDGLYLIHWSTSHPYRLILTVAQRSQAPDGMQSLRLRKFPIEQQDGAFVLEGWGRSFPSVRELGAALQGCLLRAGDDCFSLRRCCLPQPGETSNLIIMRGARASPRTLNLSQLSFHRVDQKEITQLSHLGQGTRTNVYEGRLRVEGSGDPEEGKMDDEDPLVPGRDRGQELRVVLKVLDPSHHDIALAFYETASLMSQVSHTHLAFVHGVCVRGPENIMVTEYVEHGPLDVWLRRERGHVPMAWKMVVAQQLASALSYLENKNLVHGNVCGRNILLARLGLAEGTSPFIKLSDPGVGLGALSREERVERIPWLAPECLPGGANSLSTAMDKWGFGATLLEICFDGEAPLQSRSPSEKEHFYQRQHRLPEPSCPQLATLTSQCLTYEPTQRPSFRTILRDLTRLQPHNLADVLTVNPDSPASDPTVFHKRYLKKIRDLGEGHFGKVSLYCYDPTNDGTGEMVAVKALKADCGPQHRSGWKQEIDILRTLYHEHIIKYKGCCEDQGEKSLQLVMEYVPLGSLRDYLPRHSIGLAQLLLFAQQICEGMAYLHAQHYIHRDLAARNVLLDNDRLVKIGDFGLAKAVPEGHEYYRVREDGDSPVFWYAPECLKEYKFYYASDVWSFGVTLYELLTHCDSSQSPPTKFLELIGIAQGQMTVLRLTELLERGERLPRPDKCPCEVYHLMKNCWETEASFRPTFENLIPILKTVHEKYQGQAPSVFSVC

Biological target: Non-receptor tyrosine-protein kinase TYK2 (Homo sapiens, UniProt P29597)

Compound: N#CC[C@H]1CC[C@H](n2c(=O)[nH]c3cnc(Nc4ccc[nH]c4=O)nc32)CC1
- IC50: 130 nM
